Measured values as given in US6599878B2, “Superoxygenating blood substitutes based on hemoglobin and dihydropyidine compositions” (priority 1992, dated 2003).

How the values were obtained:
[1] = Properties of the hemoglobin product and colloid solutions; type: physicochemical; conditions: 8% albumin; 10% hemoglobin; Wescor 4400 Colloid Osmometer
Excerpt: Canine hemoglobin (10 gm %) was purified as described in the parent application Ser. No. 07/849,610 filed on Mar. 11, 1992 and subsequently published by Rooney et al., Anesthesiology, 79, 60-72 (1993). A 10 gm % solution of hemoglobin is optimal for use as a resuscitative fluid or blood plasma expander because the 10 gm % concentration corresponds to the mass of red cells in blood (i.e., a hematocrit of 30 vol %) which is optimal for whole body oxygen delivery (calculated from arterial blood oxygen content x cardiac output). […]
Results not presented in Table 1 are that methemoglobin levels were stable at ±0.4% for two weeks at 4° C., and that while hemoglobin dimers and monomers and free heme were not measured, in vitro studies have shown that for hemoglobin concentrations of above about 1 to 2 gm % there is no detectable dissociation of hemoglobin tetramers [see Fanelli et al., Adv. […]
Blood pH, PCO2, PO2 and Na^+, K^+ and Ca^++ concentrations were measured with a Nova Stat Profile 1 analyzer (Waltham, Mass.). Plasma colloid osmotic pressure (COP) was determined before and after hemodilution with a Wescor 4400 Colloid Osmometer (Logan, Utah). […] Hematocrit was determined volumetrically. Hemoglobin (gm %), methemoglobin (%) and percent oxygen saturation were measured with an Instrumentation Laboratories 482 CO-Oximeter (Lexington, Mass.). […]

[2] = Systemic hemodynamics in anesthetized hemodiluted dogs (Example I); type: in vivo, mongrel dogs
Procedure: Twenty-four conditioned, heartworm-free male mongrel dogs (20 to 30 kg) were anesthetized with sodium pentobarbital (30 mg/kg i.v.) followed by an i.v. maintenance dose of 4 mg/kg/hour. After intubation of the trachea with a cuffed endotracheal tube, the dog was mechanically ventilated (Siemens 900D Servoventilator) with 100% oxygen, tidal volumes of 10 to 12 ml/kg and respiration at a rate to achieve normocarbia. These settings were not changed throughout the study. Sodium bicarbonate was not administered. The body temperature of the dog was maintained at 39 C. with water-circulated heating pads.
The dog was placed supine and a polyethylene catheter (PE 200) was inserted into the thoracic aorta via the left femoral artery for measurement of blood pressure. Two small-bore (PE 90) heparin-filled catheters of different lengths were placed in the abdominal aorta via the right femoral artery to collect reference blood samples containing radioactive microspheres for measurement of regional blood flow. Wide-bore (PE 240) catheters were placed in the right femoral vein and in the right carotid artery, for isovolemic exchange transfusion and for the administration of intravenous fluids and collection of arterial blood samples. A 5 french thermodilution catheter was advanced into the pulmonary artery via the right external jugular vein for measurement of cardiac output and right atrial pressure. A Foley catheter was inserted into the bladder for urine collection.
Under fluoroscopy, a 5 french volume-conductance catheter (Mansfield Webster) was inserted via the left carotid artery across the aortic valve to the apex of the left ventricle to measure instantaneous volume.
The animal was then placed on its right side and paralyzed with doxacurium (0.05 mg/kg) to perform a left thoracotomy in the fourth intercostal space. The exposed lung was retracted with gauze. Five cm H2O positive end-expiratory pressure was instituted to prevent atelectasis. A small incision was made in the pericardium near the left atrial appendage. The appendage was protracted and a PE 90 catheter, for microsphere injection, inserted into the ventricle via pressure verification and then pulled back into the atrium. A 3 french micromanometer-tipped pressure catheter (Millar) was then inserted via the appendage into the left ventricle for pressure recording. Both catheters were secured with a ligature around the appendage and distally taped to the animal. The exposed thoracic surface was covered with plastic film to prevent evaporation.
Continuous measurements of heart rate (HR), pulsatile aortic pressure, mean aortic pressure (MAP), left ventricular peak pressure (LVPP), rate-of-change of LVPP (dP/dt), LV end diastolic pressure (LVEDP), LV volume, and right atrial pressure (RAP) were recorded on an analog thermal array recorder (Gould Model TA4000) and stored on a computerized data acquisition system (Halcom, Inc.) Cardiac output (CO) was measured in triplicate using a Spectramed Hemoprol computer. Systemic vascular resistance (SVR) was calculated from (MAP−RAP)÷CO. Systemic vascular hindrance (SVH) was calculated from SVR÷η, where η is the apparent viscosity of blood in centipoise (cp). At high flow rates (shear rates≈200 s^−1) assumed in the aorta, η is 4.0 cp for hematocrit (Hct) of 40 vol % and 2.1 cp for Hct of 20 vol %. Stroke volume was derived from CO÷HR. LV stroke work (LVSW) was calculated from (systolic AoP−LVEDP)×SV×0.0136.
Left ventricular contractility was determined from end-systolic elastance (Ees) using pressure-volume relationships according to the methods of Kass et al., Circulation, 79, 167-178 (1989). Briefly, a catheter with 11 electrodes spaced 1 cm from its distal end was positioned in the ventricle so that its tip was at the apex (verified with fluoroscopy). A weak electrical field (20 KHz, 0.03 mA RMS current) was generated through the LV cavity from the electrodes at the apex and at the aortic valve. […]

[3] = Whole body oxygenation (Example I); type: in vivo, mongrel dogs; conditions: for CaO2: arterial oxygen content
[4] = Regional blood flows by radioactive microspheres (Example I); type: in vivo, mongrel dogs; conditions: vs control and post-SNP infusion
Procedure: Regional blood flows (ml/minute/100 g tissue) were measured with the reference isotope technique using 15μ microspheres as described in detail in Crystal et al., supra. Briefly, prior to injection, microspheres labeled with Sc^46, Sr^85, Sn^113 or Ce^141 were vortexed and sonicated. Approximately 30 microcuries (1×10^6 microspheres) were injected into the left atrium of a dog. Beginning with each microsphere injection, duplicate reference blood samples were collected at a constant rate (6 ml min^−1) for 3 minutes from the femoral PE 90 catheters. Radioactivity of the duplicate samples differed by less than 10%, indicating adequate mixing of the microspheres in the left ventricular output. […]
The tissue and reference samples were weighed and analyzed for radioactivity with a gamma scintillation counter equipped with a multichannel analyzer (Packard Instrument, Downers Grove, Ill.). […] Values for organ blood flows (BForgan) in ml min^−1 were calculated from the equation BForgan=ABF×(MC÷AC)×organ weight (g), where ABF is the rate of arterial reference sampling (ml/minute), MC is the microsphere radioactivity (counts min^−1 g^−1) in the tissue samples, and AC is the total microsphere radioactivity (counts/minute) in the arterial reference samples. […] Skeletal muscle, skin and bone weights were calculated as 40%, 9% and 8% of body weight, respectively.

cyclic GMP [5] = assay: Plasma cyclic GMP and arterial pressure before and after hemodilution and SNP (Example II); type: in vivo, dog; conditions: hemodilution alone, n = 5, mean ± sem
Excerpt: To gain more direct evidence that the molecular mechanism governing the hemodynamic pharmacology of hemoglobin-hemodilution involves inactivation or antagonism of NO, we conducted a study on systemic guanosine 3′:5′-cyclic monophosphate (cyclic GMP) production. Cyclic GMP is the end-product of the L-arginine→NO synthase→NO→guanylate cyclase→cyclic GMP pathway.
The effects of administering a nitric oxide donor/cyclic GMP generator (Na nitroprusside) on plasma cyclic GMP levels and arterial blood pressure are shown in Table 9 for control (non-hemodiluted), Ab-HD and oxyHb-HD animals.

cyclic GMP [6] = assay: Regional interstitial cGMP by microdialysis; type: in vivo, dog; conditions: during hemodilution alone, n = 4
Excerpt: In a small pilot study, we investigated the possibility that oxyHb would cause selective differences in regional cGMP production (Table 10). An in vivo method that is based on direct microdialysis of the organ tissue was used to examine the regional interstitial production of cGMP. The microdialysis technique uses a small dialysis fiber (250 μm diameter) that is inserted into the tissue and perfused to sample extracellular metabolites.

nitric oxide synthase = assay: L-NAME during Ab-HD pilot study; type: in vivo, dog; conditions: Ab-HD alone
Procedure: Approximately 6 mg/kg L-NAME was administered i.v. bolus during Ab-HD. Significant increases in MAP and decreases in plasma cGMP were evident (Table 11).

[7] = anesthetized dogs, hemodilution to hematocrit 50% of baseline

AbHD: Human albumin in normal saline purchased as Albuminar-25; 8 gm % used for hemodilution as inert colloid control [reference compound]
COP of colloid solution [1]: 39.3±0.9 mm Hg
LV Elastance [2, 7]: 5.26 mm Hg ml
LV dP/dtmax [2, 7]: 1753 mm Hg/sec
LVPP [2, 7]: 150 mm Hg
LVSW [2, 7]: 45.3 g m/beat
MAP [2, 7]: 122 mm Hg
heart rate [2, 7]: 167 beats/min
mean aortic, right atrial and LV end-diastolic (systemic) pressures vs control ([2]; dog, in vivo): not changed
systemic vascular hindrance vs control ([2]; dog, in vivo): did not change
cardiac output, % of control ([2]; hematocrit 50% of control): approximately 177 % of control
systemic vascular resistance, % of control ([2]; hematocrit 50% of control): about 54 % of control
C(a-v)O2 ([3]; anesthetized dogs): 2.7 ml/100 ml
CvO2 ([3]; anesthetized dogs): 6.8 ml/100 ml
CaO2 ([3]; anesthetized dogs): 10.0 ml/100 ml
CaO2 ([3]; anesthetized dogs, listed as albumin): 10.0±0.2 ml/100 ml
DO2 ([3]; oxygen delivery = CaO2 x CO): 418 mL/min
decrease in arterial-mixed venous oxygen content difference ([3]; vs control): 47%
reduction in arterial oxygen content ([3]; vs control): ~50%
WBVO2 ([3]; whole body oxygen consumption): 126 mL/min
O2 extr ([3]; whole body oxygen extraction ratio): 30%
increase in regional blood flows through various organ beds [4]: about 80%
MAP (cyclic GMP [5]): 138 ± 8 mm Hg
Plasma cGMP (cyclic GMP [5]): 23.78 ± 1.14 µg/mL
Cyclic GMP levels in regional interstitial microdialysate, MU (cyclic GMP [6]; MU): 22.24* μg/ml
Cyclic GMP levels in regional interstitial microdialysate, BO (cyclic GMP [6]; bone): 18.12* μg/ml
Cyclic GMP levels in regional interstitial microdialysate, BR (cyclic GMP [6]; brain): 24.16* μg/ml
Cyclic GMP levels in regional interstitial microdialysate, GI (cyclic GMP [6]; gastrointestinal tract): 18.12* μg/ml
Cyclic GMP levels in regional interstitial microdialysate, HE (cyclic GMP [6]; heart): 21.56* μg/ml
Cyclic GMP levels in regional interstitial microdialysate, LI (cyclic GMP [6]; liver): 14.24* μg/ml
Cyclic GMP levels in regional interstitial microdialysate, LU (cyclic GMP [6]; lung): 22.46* μg/ml
Cyclic GMP levels in regional interstitial microdialysate, SP (cyclic GMP [6]; spleen): 22.60* μg/ml
CO (nitric oxide synthase; n = 3): 3710 ± 255 mL/min
MAP (nitric oxide synthase; n = 3): 126 ± 6 mm Hg
cGMP (nitric oxide synthase; plasma, n = 3, mean ± sem): 22.04 ± 1.01 µg/mL

Marks after values point to notes of the source that are not given here.
